{"source": "patent US20250057961A1", "about": "“BLOOD-BRAIN BARRIER PENETRATING DRUG DELIVERY SYSTEM USING SIALYLLACTOSE” (GENECHEM INC., priority 2021, published 2025)", "assay": "Brain tissue penetration and substance dissociation (LC-MS/MS of tissue homogenate supernatant)", "details": "administered intravenously", "method": "To examine the distribution and dissociation of sialyllactose-conjugated methotrexate in tissues, GCB017 was administered and the presence of GCB017 and its dissociates (linker-6′SL (L-6′SL) and linker) in the brain and pancreas was checked. Specifically, GCB017 was dissolved and diluted in 10% DMSO, thus preparing a sample (final DMSO concentration was approximately 2% of the total volume). The sample was administered intravenously (IV) at a dose of 80 mg/kg or administered orally (PO) at a dose of 80 mg/kg. Then, at different time points (0, 0.5, 2, and 4 hours), the animals were anesthetized, heart blood was collected, saline solution was perfused, and the brain and pancreas were extracted. Each of the extracted tissues was homogenized in 50 mM Tris-HCl buffer (pH 7.5) at a ratio of 1:5 and centrifuged at 3,000 rpm and 4° C. for 20 minutes, and the supernatant was collected and subjected to mass spectrometry (SCIEX Triple Quad 3500 LC-MS/MS system).\nThe sample was administered intravenously (IV) at a dose of 80 mg/kg or administered orally (PO) at a dose of 246 mg/kg. Then, at different time points (0, 0.5, 2, and 4 hours), the animals were anesthetized, heart blood was collected, saline solution was perfused, and the brain and pancreas were extracted. […]", "data": [{"substance": "gemcitabine-succinate-aminohexyl-6′SL [GCB034]", "values": [{"measurement": "presence of GCB034 and its dissociates in tissues", "value": "detected in the brain and pancreas"}]}]}
